Measured values as given in PubChem BioAssay AID624465 (National Center for Advancing Translational Sciences (NCATS), 2012).
This is a selection; strong and weak results do not stand in their true shares. Calls of active or inactive are those of the source. Rule as the data show it: active = activation above about 40%; inconclusive = between about 15% and that limit; inactive = weaker than that.

Sequences of proteins named here, by UniProt entry; tags and fusion partners are left off.
UniProt P14416, whole entry: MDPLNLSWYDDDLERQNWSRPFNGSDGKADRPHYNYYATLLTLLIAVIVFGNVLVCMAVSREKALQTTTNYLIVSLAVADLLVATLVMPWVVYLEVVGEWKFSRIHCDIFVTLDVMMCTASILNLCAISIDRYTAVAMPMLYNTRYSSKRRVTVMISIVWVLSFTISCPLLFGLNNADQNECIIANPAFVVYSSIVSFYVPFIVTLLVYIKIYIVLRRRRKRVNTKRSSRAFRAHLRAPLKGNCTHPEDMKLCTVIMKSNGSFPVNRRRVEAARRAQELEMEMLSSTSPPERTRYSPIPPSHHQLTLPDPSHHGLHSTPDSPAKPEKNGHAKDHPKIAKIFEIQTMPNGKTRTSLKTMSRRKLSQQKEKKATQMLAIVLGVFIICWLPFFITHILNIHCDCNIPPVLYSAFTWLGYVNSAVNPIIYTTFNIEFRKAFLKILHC

What follows are molecules tested against D(2) dopamine receptor (Homo sapiens) (UniProt P14416) (assay: Beta-Arrestin HTS for Positive Allosteric Modulators of the Human D2 Dopamine Receptor: Agonists). Settings: DiscoveRx PathHunter D2 beta-arrestin, luminescence, 90 min; active compounds read high; 100% = 57 uM dopamine signal.
Text: There is great interest in identifying small molecule ligands for G-protein coupled receptors (GPCRs) as nearly 50% of all FDA-approved drugs target these important receptor proteins. […] Amongst the dopamine receptors (DARs), the D2 is arguably one of the most validated drug targets in neurology and psychiatry. For instance, all receptor-based antiparkinsonian drugs primarily work via stimulating the D2 DAR, whereas all FDA-approved antipsychotic agents are antagonists of this receptor. The D2 DAR is also therapeutically targeted in other disorders such as restless legs syndrome, tardive dyskinesia, Tourette's syndrome, and hyperprolactinemia.
To this end, a miniaturized qHTS screen was developed to be screened against the Molecular Libraries Small Molecule Repository (MLSMR). This assay seeks to identify agonists against the D2 DAR.
NIH Molecular Libraries Probe Production Network [MLPCN] […]
DiscoveRx D2 cells were thawed from frozen stock and seeded at 2,100 cells/ 3 uL/well media (DiscoveRx Plating Reagent 2) with MultiDrop Combi dispenser (Thermo Scientific, Logan, UT) onto white tissue culture treated 1536-well Aurora plates (Brooks Automation, Chelmsford, MA) and allowed to attach overnight at 37 deg C, 5% CO2. […] The plates were incubated at ambient temperature for 1 hour and then the luminescent signal was read on ViewLux plate reader (PerkinElmer, Waltham, MA).

Row | SMILES | activation
1 | CCC(=O)N(c1ccccc1)C1(COC)CCN(CCn2nnn(CC)c2=O)CC1 | inactive: 1.48%
2 | CCC(=O)N(c1ccccc1)C1(COC)CCN(CCc2cccs2)CC1 | inactive: 2.61%
